Test results from ChEMBL document CHEMBL5331128, “Alicyclic Ring Size Variation of 4-Phenyl-2-naphthoic Acid Derivatives as P2Y14 Receptor Antagonists” (J Med Chem, 2023).

Molecular target: T1, P2Y purinoceptor 14 (Homo sapiens, UniProt Q15391)
T1 sequence (Q15391 whole entry): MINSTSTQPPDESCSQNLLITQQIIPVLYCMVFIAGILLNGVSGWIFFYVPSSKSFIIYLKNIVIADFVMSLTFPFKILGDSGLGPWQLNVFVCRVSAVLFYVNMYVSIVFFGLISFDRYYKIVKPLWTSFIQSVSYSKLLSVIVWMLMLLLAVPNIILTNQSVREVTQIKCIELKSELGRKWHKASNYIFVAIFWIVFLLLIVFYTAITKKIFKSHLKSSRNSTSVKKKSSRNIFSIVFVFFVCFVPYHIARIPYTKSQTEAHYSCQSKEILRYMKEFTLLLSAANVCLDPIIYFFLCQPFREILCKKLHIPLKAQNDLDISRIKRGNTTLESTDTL
Assay: Displacement of fluorescent tracer 4-(4-(1-(4-(1-(6-(3-carboxylato-4-(3-iminio-3H-xanthen-9-yl)benzamido)hexyl)-4,5-dihydro-1H-pyrrol-3-yl)butyl)piperidin-1-ium-4-yl)phenyl)-7-(4-(trifluoromethyl)phenyl)-2-naphthoate from human P2Y14R stably expressed in CHO cells assessed as inhibition constant by flow cytometry
Type: cell-based
How it was run: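 Whole-cell competitive binding: CHO cells expressing hP2Y14R (or HEK-293 cells expressing mP2Y14R) incubated with AlexaFluor488-labelled antagonist tracer at 20 nM. […] Ki derived by dividing IC50 by 1.72.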

- Ki: 18.3 nM
Structure (SMILES): O=C(O)c1cc(-c2ccc(C3CCNC3)cc2)c2ccc(-c3ccc(C(F)(F)F)cc3)cc2c1 (racemic)
